In patent US20140356376:

Experiments:
[1] = system: thioFAB 4497 MP-LAFAA-QSY7
[2] = system: thio-S4497 HC v1-MP-LAFG-PABC-(piperazinoBOR) AAC-193
[3] = system: thioFAB 4497 MP-LAFGA-QSY7

For human cathepsin B, the Percent cleavage pH 7.2 [1] was 100%, the Percent cleavage pH 5 [2] was 100% and the Percent cleavage pH 7.2 [2] was 64%. The Percent cleavage pH 7.2 [3] was 100%.
